Measurements from patent US20050049197A1, “Induction of immune response against desired determinants” (Epimmune Inc., priority 1993, published 2005).
pIC50: −log10 of the molar value.

Test system: DR3
Conditions: read-out: Binding Activity DR3, IC50

Work on `CC(C)C[C@H](NC(=O)[C@@H](NC(=O)[C@H](C)NC(=O)[C@H](C)NC(=O)[C@H](C)NC(=O)[C@@H](NC(=O)[C@H](CC1CCCCC1)NC(=O)[C@H](CCCCN)NC(=O)[C@@H](C)N)C(C)C)[C@@H](C)O)C(=O)N[C@@H](CCCCN)C(=O)N[C@@H](C)C(=O)N[C@@H](C)C(=O)N[C@H](C)C(N)=O` [965.16] yielded a pIC50 of 5.83.
